The target in the test is TF-N4BP1 (613–893) (mouse) (UniProt Q6A037). As to the kind of experiment: SPR; Biacore S200; TF-N4BP1 fragment amine-coupled to a CM5 chip, mono- and diUb flowed over at 30 μl/min; HBS-P+ (10 mM HEPES pH 7.4, 150 mM NaCl, 0.05% Tween 20), 25 °C; KD from plateau levels. (In general: SPR reads the build-up and loss of mass on a sensor chip optically.)

By UniProt entry, the sequences of proteins in these tests, tags left out. Residues count along the entry.
UniProt Q6A037, 613-893: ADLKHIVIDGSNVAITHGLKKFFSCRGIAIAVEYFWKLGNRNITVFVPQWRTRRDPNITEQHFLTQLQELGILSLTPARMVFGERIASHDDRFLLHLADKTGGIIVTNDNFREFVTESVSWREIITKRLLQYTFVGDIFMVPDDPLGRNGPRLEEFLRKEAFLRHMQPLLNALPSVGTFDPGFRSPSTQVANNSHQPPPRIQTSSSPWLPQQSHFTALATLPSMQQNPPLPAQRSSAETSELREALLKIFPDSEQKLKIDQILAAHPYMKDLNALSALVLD

pKd: −log10 of the molar value.

In general, pKd refers to the negative decadic logarithm of the Kd, by convention in mol/L. Read a high pKd as a low Kd.

For the substance K63-diUb (from UniProt P0CG48 1-76), the pKd was 4.96.

K48-diUb (from UniProt P0CG48 1-76) showed a pKd of 4.47.

Values taken from PMC11032371.
